These are literature values, as cited in patent publication US12357569B2, “Infusing drug solution directly into brain fluid” (Biogen MA Inc., priority 2016, dated 2025).

For this data set the following is noted: administered intravenously; CSF vs plasma.

On to trastuzumab, for which the “cerebrospinal fluid (CSF) level lower than plasma levels” value is given as 300 fold.
